This assay has as its target T1, 5-hydroxytryptamine receptor 2C (Rattus norvegicus, UniProt P08909).
T1 sequence (P08909 whole entry): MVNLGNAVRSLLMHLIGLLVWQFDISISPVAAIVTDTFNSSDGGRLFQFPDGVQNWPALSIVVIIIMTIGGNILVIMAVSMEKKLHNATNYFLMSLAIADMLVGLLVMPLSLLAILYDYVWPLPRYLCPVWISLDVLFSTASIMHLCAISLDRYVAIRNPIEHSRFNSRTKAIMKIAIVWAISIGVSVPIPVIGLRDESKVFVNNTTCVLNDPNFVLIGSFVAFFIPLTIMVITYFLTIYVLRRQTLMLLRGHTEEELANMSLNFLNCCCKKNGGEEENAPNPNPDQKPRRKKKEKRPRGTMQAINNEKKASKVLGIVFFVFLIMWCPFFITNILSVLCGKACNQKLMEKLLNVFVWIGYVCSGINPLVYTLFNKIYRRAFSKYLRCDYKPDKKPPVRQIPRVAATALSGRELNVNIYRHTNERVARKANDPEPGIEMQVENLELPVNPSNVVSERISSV

SMILES strings stand for the structures.

The term Ki denotes a dissociation constant, usually derived from enzyme kinetics or from competition with a known ligand. In turn, `O=C(CCCN1C2CCC1CC(O)(c1ccc(Cl)cc1)C2)c1ccc(F)cc1` (stereo unspecified) gave a Ki of 872 nM.

The record behind these values is ChEMBL document CHEMBL3352364 (Bioorg Med Chem Lett, 2014).
